# From publication PMC9620001 (Journal of Medicinal Chemistry, 2022)
# Chains of the proteins cited; added tags and fusions are not shown. Residues count along the entry.
# UniProt P03952, 20-390 partner limits assumed: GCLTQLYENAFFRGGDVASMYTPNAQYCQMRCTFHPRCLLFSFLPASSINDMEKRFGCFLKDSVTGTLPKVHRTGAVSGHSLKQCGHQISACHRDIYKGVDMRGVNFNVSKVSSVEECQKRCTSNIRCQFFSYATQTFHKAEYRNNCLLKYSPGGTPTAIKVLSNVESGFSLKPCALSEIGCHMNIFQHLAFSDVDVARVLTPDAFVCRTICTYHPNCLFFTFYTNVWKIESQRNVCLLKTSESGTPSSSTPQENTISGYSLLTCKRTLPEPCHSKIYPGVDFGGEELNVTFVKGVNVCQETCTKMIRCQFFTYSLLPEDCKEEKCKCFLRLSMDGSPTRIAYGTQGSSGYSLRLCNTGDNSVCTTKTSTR
# UniProt P03952, 391-638 limits assumed: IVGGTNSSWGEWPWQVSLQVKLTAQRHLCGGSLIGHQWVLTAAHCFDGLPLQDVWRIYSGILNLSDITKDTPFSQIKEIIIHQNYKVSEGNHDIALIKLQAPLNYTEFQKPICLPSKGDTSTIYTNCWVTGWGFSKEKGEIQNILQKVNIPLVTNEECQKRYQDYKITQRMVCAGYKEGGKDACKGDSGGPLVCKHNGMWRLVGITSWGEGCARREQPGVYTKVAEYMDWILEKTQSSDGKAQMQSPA
# Biological target: Human PKa (Homo sapiens, UniProt P03952)
# Format: biochemical
# Conditions: not given
row,SMILES,LLE
1,"COc1cccc(CNC(=O)c2cn(Cc3ccc(Cn4ccccc4=O)cc3)nc2N(C)C)c1F [Compound 13e, COc1cccc(c1F)CNC(=O)c1cn(nc1N(C)C)Cc1ccc(cc1)CN1C=CC=CC1=O]",4.4
2,"COCc1nn(Cc2ccc(Cn3ccccc3=O)cc2)cc1C(=O)NCc1cccc(O)c1F [Compound 13g, COCc1nn(cc1C(=O)NCc1cccc(c1F)O)Cc1ccc(cc1)CN1C=CC=CC1=O]",4.2
3,"COCc1nn(Cc2ccc(Cn3ccccc3=O)cc2)cc1C(=O)NCc1cc(OC)ccc1F [Compound 13l, COCc1nn(cc1C(=O)NCc1cc(ccc1F)OC)Cc1ccc(cc1)CN1C=CC=CC1=O]",5.1

# Same assay, conditions: lipophilic ligand efficiency
row,SMILES,LLE
1,"COc1ccc(F)c(CNC(=O)c2cnn(Cc3ccc(Cn4ccccc4=O)cc3)c2)c1F [Compound 13a, COc1ccc(c(c1F)CNC(=O)c1cnn(c1)Cc1ccc(cc1)CN1C=CC=CC1=O)F]",6.1
2,"COc1ccc(F)c(CNC(=O)c2cn(Cc3ccc(Cn4ccccc4=O)cc3)nc2CN(C)C)c1F [Compound 13c, COc1ccc(c(c1F)CNC(=O)c1cn(nc1CN(C)C)Cc1ccc(cc1)CN1C=CC=CC1=O)F]",5.8
3,"COCc1nn(Cc2ccc(Cn3ccccc3=O)cc2)cc1C(=O)NCc1cccc(OC)c1F [Compound 13d, COCc1nn(cc1C(=O)NCc1cccc(c1F)OC)Cc1ccc(cc1)CN1C=CC=CC1=O]",5.2
4,"COCc1nn(Cc2ccc(Cn3ccccc3=O)cc2)cc1C(=O)NCc1c(C#N)ccc(OC)c1F [Compound 13k, COCc1nn(cc1C(=O)NCc1c(c(ccc1C#N)OC)F)Cc1ccc(cc1)CN1C=CC=CC1=O]",6.9
